Consider 1 compound from ChEMBL document CHEMBL1125860, “Syntheses of tolrestat analogues containing additional substituents in the ring and their evaluation as aldose reductase inhibitors. Identification of potent, orally active 2-fluoro derivatives” (J Med Chem, 1991).

The term IC50 denotes the midpoint of a concentration-inhibition curve.

This assay deals with Aldo-keto reductase family 1 member B1 (Bos taurus, UniProt P16116). The experiment in a line: inhibition of aldose reductase activity was measured on partially purified bovine lens preparations incubated in presence of 50 mM glucose.

Consider `COc1ccc2c(C(=S)N(C)CC(=O)O)cccc2c1C(F)(F)F` [TOLRESTAT], for which the half-inhibitory concentration (IC50) amounted to 34 nM.
